Results on seven compounds are retold here after patent US6262094A (priority 1999, dated 2001).

Values after ≈ are worked out from the molar mass of the structure shown.

In the assay the test system is L929 (DSM ACC 2), mouse connective tissue fibroblasts. Description: cells. Type of assay: cell-based. The settings on record: L929, 120 h, read-out: IC50 L929 mouse.
In general, IC50 refers to the point on the concentration scale where inhibition reaches its midpoint. With `C/C(=C\c1csc(CN)n1)[C@@H]1C[C@@H]2O[C@@H]2CCC[C@H](C)[C@H](O)[C@@H](C)C(=O)C(C)(C)[C@@H](O)CC(=O)O1` [21-amino-epo A], the IC50 worked out at 8 ng/mL (≈ 0.0157 µM).

As to `C/C(=C\c1csc(C=NO)n1)[C@@H]1C[C@@H]2O[C@@H]2CCC[C@H](C)[C@H](O)[C@@H](C)C(=O)C(C)(C)[C@@H](O)CC(=O)O1` [epo A-20-carbaldoxime], the IC50 was determined as 7 ng/mL (≈ 0.0134 µM).

Take `C/C(=C\c1csc(CN=[N+]=[N-])n1)[C@@H]1C[C@@H]2O[C@]2(C)CCC[C@H](C)[C@H](O)[C@@H](C)C(=O)C(C)(C)[C@@H](O)CC(=O)O1` [21-azido-epo B, [1S-[1R*,3R* (E),7R*, 10S*,11R*,12R*,16S*]]-3-[2-[2-(Azidomethyl)-4-thiazolyl]-1-methylethenyl]-7,11-dihydroxy-8,8,10,12,16-pentamethyl-4,17-dioxabicyclo[14.1. 0]heptadecane-5,9-dione]: the IC50 was found to be 0.6 ng/mL (≈ 0.00109 µM).

For `C/C(=C\c1csc(CN=[N+]=[N-])n1)[C@@H]1C[C@@H]2O[C@@H]2CCC[C@H](C)[C@H](O)[C@@H](C)C(=O)C(C)(C)[C@@H](O)CC(=O)O1` [21-azido-epo A], the IC50 is 6 ng/mL (≈ 0.0112 µM).

In the case of `C=Cc1nc(/C=C(\C)[C@@H]2C[C@@H]3O[C@@H]3CCC[C@H](C)[C@H](O)[C@@H](C)C(=O)C(C)(C)[C@@H](O)CC(=O)O2)cs1` [20-vinyl-epo A, [1S-[1R*,3R*(E),7R*,10S*,11R*,12R*,16S*]]-3-[2-(2-Ethenyl-4-thiazolyl)-1-methylethenyl]-7,11-dihydroxy-8,8,10,12-tetramethyl-4,17-dioxabicyclo[14.1. 0]heptadecane-5,9-dione], the IC50 is 3 ng/mL (≈ 0.00593 µM).

In the case of `C/C(=C\c1csc(CCl)n1)[C@@H]1C[C@@H]2O[C@@H]2CCC[C@H](C)[C@H](O)[C@@H](C)C(=O)C(C)(C)[C@@H](O)CC(=O)O1` [21-chloro-epo A], the IC50 is 170 ng/mL (≈ 0.322 µM).

Turning to `C/C(=C\c1csc(CN)n1)[C@@H]1C[C@@H]2O[C@]2(C)CCC[C@H](C)[C@H](O)[C@@H](C)C(=O)C(C)(C)[C@@H](O)CC(=O)O1` [21-amino-epo B, [1S-[1R*,3R*(E),7R*,10S*,11R*,12R*,16S*]]-3-[2-[2-(Aminomethyl)-4-thiazolyl]-1-methylethenyl]-7,11-dihydroxy-8,8,10,12,16-pentamethyl-4,17-dioxabicyclo[14.1.0]heptadecane-5,9-dione], the IC50 was determined as 0.5 ng/mL (≈ 0.000957 µM).
